Laboratory results reported in ChEMBL document CHEMBL1135436, “Structure-activity relationships of the melanocortin tetrapeptide Ac-His-DPhe-Arg-Trp-NH(2) at the mouse melanocortin receptors. 1. Modifications at the His position” (J Med Chem, 2002).

By UniProt entry, the sequences of proteins in these tests, tags left out. Where a name states a change or a piece, a line headed by the entry shows the natural chain unless it says otherwise.
UniProt Q01727: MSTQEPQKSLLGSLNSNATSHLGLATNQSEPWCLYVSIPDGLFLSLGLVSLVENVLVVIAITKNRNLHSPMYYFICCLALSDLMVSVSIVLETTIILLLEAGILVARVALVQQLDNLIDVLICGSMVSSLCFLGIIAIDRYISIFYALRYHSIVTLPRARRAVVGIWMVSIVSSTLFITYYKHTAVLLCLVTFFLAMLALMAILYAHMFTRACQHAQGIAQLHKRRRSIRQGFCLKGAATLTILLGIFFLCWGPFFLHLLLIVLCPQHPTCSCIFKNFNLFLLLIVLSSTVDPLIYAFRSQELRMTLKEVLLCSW

Biological target: Melanocyte-stimulating hormone receptor (Mus musculus, UniProt Q01727)
Assay: In vitro activation of mouse recombinant Melanocortin-1 receptor.
In short: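 HEK-293 cells stably expressing the mouse receptor (calcium phosphate transfection, G418 1 mg/mL selection) were transfected with a CRE/β-galactosidase reporter. Lysates were read with ONPG at 37 °C (OD405), normalized to protein (OD595) and forskolin. EC50 came from nonlinear least-squares fitting, duplicate experiments in quadruplet.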

- EC50: 289 nM
Compound: CC(=O)N[C@H](Cc1cnc[nH]1)C(=O)N[C@H](Cc1ccccc1)C(=O)N[C@@H](CCCNC(=N)N)C(=O)N[C@@H](Cc1c[nH]c2ccccc12)C(N)=O
